Target: T1, His6-RNase R (Escherichia coli, UniProt P21499 1-813)
T1 construct: 3'-5' exoribonuclease RNase R (rnr), Escherichia coli, about 92 kDa; also called His-tagged RNase R; purified RNase R; source: purified on Ni-NTA columns (GE Healthcare)
T1 sequence (looked up): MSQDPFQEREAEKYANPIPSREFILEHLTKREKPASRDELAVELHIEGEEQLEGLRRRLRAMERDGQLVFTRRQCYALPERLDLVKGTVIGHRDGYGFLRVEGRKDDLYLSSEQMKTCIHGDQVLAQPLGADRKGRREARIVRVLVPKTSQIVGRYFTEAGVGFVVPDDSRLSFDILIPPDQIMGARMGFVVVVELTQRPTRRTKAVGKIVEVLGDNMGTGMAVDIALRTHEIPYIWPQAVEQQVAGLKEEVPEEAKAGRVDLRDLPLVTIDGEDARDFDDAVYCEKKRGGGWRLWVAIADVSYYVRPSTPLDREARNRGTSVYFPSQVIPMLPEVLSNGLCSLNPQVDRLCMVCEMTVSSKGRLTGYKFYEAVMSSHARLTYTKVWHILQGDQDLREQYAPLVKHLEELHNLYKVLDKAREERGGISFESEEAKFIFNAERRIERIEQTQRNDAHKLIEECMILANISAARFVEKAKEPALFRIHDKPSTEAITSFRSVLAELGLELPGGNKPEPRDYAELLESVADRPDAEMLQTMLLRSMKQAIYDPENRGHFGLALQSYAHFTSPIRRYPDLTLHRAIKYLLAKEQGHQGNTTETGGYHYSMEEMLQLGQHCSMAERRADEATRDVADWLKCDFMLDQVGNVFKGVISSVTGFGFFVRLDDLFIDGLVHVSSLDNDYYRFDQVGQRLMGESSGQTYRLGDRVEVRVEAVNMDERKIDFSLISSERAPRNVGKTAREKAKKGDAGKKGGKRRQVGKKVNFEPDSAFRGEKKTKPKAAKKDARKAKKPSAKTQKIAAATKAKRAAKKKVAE
Assay: far-Western, overlay or dot blot; purified His6-RNase R (0.01-0.5 ug) resolved on 10% SDS-PAGE, blotted to nitrocellulose and renatured in situ; membrane incubated with purified His6-Hfq in solution (45 nM); detected with anti-Hfq antiserum
Conditions: both partners purified

B1: His6-Hfq (natural protein, Escherichia coli, UniProt P0A6X3 1-102, looked up)
chain: MAKGQSLQDPFLNALRRERVPVSIYLVNGIKLQGQIESFDQFVILLKNTVSQMVYKHAISTVVPSRPVSHHSNNAGGGTSSNYHHGSSAQNTSAQQDSEETE
notes: RNA chaperone Hfq (hfq), Escherichia coli; also called His-tagged Hfq; purified Hfq; source: purified on Ni-NTA columns (GE Healthcare)
binding result: binds
